Literature values in PMC7830601.

By UniProt entry, the sequences of proteins in these tests, tags left out. Where a name states a change or a piece, a line headed by the entry shows the natural chain unless it says otherwise.
UniProt Q8TDX7: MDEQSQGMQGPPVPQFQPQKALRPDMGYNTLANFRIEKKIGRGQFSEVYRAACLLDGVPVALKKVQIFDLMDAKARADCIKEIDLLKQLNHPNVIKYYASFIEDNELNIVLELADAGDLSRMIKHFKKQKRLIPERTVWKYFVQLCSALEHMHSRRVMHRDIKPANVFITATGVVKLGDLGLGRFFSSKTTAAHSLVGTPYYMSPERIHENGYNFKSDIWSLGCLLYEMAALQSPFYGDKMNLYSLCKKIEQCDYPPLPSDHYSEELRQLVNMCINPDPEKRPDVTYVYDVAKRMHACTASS
UniProt Q96P20, whole entry: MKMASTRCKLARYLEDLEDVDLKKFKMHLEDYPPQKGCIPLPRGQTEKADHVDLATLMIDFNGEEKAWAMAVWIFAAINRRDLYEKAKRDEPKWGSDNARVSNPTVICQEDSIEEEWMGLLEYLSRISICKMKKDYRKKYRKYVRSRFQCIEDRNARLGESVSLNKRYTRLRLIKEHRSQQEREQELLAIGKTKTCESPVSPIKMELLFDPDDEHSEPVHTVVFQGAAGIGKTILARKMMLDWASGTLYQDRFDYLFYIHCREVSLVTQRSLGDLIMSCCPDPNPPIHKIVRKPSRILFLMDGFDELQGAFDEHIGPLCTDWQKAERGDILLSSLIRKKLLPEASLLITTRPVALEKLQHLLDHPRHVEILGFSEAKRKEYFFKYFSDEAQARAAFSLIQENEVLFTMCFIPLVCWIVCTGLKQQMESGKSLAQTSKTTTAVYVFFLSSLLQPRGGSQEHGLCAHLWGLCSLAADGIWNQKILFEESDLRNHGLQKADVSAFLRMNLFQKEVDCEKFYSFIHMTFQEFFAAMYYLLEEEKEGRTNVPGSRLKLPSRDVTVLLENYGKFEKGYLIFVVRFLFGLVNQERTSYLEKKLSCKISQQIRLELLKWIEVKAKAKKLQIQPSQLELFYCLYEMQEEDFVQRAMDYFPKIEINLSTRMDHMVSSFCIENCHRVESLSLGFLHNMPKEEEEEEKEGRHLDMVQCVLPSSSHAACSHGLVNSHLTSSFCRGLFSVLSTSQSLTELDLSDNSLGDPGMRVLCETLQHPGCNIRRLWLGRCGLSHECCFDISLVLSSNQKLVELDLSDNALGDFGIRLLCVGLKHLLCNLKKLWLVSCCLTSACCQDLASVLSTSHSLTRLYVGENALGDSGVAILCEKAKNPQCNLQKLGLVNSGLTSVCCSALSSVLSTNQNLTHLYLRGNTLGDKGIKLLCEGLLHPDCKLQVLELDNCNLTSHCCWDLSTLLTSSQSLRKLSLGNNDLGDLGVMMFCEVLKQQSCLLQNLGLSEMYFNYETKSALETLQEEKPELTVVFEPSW

Biological target: NEK7 (Homo sapiens) (UniProt Q8TDX7)

In the case of NLRP3 (from UniProt Q96P20), the Kd is listed as 78.9 nM.
